Measurements from article PMC8654284 (Science Advances, 2021).

The chains behind the UniProt entries cited, without tags or fusion partners.
UniProt P25103, whole entry Y92F: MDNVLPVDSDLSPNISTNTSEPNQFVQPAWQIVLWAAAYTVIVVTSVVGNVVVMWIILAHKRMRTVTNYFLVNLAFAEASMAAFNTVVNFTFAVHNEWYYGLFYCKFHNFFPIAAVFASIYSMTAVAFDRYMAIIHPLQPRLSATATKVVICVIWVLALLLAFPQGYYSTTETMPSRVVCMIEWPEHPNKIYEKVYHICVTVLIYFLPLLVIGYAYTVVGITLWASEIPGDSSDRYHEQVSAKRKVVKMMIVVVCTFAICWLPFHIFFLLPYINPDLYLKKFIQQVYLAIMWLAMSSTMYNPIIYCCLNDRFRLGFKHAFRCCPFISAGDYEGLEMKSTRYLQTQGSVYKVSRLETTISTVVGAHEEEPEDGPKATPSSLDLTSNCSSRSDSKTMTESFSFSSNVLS
UniProt P25103, whole entry F25Y: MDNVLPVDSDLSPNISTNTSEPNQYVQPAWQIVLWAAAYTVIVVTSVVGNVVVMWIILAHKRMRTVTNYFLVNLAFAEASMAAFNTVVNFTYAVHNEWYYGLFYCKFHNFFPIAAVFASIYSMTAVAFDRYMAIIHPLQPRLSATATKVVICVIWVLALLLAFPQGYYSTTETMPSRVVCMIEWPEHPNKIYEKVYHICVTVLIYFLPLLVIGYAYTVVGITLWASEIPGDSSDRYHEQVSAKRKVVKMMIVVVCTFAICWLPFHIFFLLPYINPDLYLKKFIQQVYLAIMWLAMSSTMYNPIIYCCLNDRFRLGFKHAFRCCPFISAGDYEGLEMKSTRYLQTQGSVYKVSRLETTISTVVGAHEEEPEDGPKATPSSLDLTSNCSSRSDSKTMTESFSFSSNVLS

Tests used:
NK1R Y92F = NK1R Y92F (Homo sapiens, UniProt P25103, Y92F); assay: Whole-cell SP-HL488 saturation binding, Y92F; settings: mutation Y92F vs wt; measured with SP-HL488
NK1R F25Y = NK1R F25Y (Homo sapiens, UniProt P25103, F25Y); assay: Whole-cell SP-HL488 saturation binding, F25Y; settings: mutation F25Y vs wt; measured with SP-HL488

- SP binding affinity (NK1R Y92F): unchanged
- change in binding affinity (NK1R F25Y): subtle change in binding affinity
Sequence: RPKPQQFFGLM [SP, substance P]
